Literature values as cited in publication PMC10608500, “Xinghamide A, a New Cyclic Nonapeptide Found in Streptomyces xinghaiensis” (Marine Drugs, 2023).

Tested on: HeLa cells derived from cervical cancer
Details: read-out: IC50, cytotoxic activity against HeLa cells

**Q.** For heptavalinamide A, which IC50 is on record?
**A.** 2.8 µM
